How the values were obtained:
[1] = system: Human primary monocyte-derived macrophages infected with M. bovis BCG-GFP; format: cell-based
[2] = system: M. bovis BCG-GFP infected human primary monocyte-derived macrophages; format: cell-based
[3] = system: Human primary monocyte derived macrophages; details: 10µM, four hours
[4] = system: infected human primary macrophages; details: 10 µM; for acidity of lysosomes (Lysotracker red intensity): over time

Row | SMILES | localization of EEA1 to mycobacterial phagosomes [1] | mycobacteria within autophagosomes [2] | mycobacteria within autophagosomes in the presence of 3-MA [2] | number and integral intensity of LC3 vesicles [3] | toxicity to cells (total cell numbers) [3] | acidity of lysosomes (Lysotracker red intensity) [4] | integral intensity of bacteria over time ([4]; time course) | co-localization of mycobacteria and LBPA over time [1] | co-localisation of mycobacteria to lysosomes ([4]; time course) | intensity of lysosomes that contain bacteria ([4]; time course)
1 | CNCCC=C1c2ccccc2CCc2ccccc21 [Nortriptyline, 3-(10,11-dihydro-5H-dibenzo[a,d]cyclohepten-5-ylidene)-N-methyl-1-propanamine] | not observed | presence of mycobacteria within autophagosomes | not observed in autophagosomes but in mycobacterial phagosomes | increase in both number and integral intensity of LC3 vesicles | not toxic to cells | enhance the acidity of lysosomes | – | – | – | –
2 | CN1CCN(CCCN2c3ccccc3Sc3ccc(Cl)cc32)CC1 [Prochlorperazine edisylate, 2-chloro-10-[3-(4-methyl-1-piperazinyl)propyl]-10H-phenothiazine] | not observed | presence of mycobacteria within autophagosomes | not observed in autophagosomes but in mycobacterial phagosomes | increase in both number and integral intensity of LC3 vesicles | not toxic to cells | significantly increased the acidity | reduction in bacterial intensity | – | – | –
3 | O=C(CCCN1CCC(O)(c2ccc(Cl)cc2)CC1)c1ccc(F)cc1 [Haloperidol, 4-[4-(4-chlorophenyl)-4-hydroxy-1-piperidyl]-1-(4-fluorophenyl)-butan-1-one] | small, but significant, localization of EEA1 to mycobacterial phagosomes | did not show this effect | – | – | – | – | – | increased with time | – | –
4 | CO[C@H]1/C=C/O[C@@]2(C)Oc3c(C)c(O)c4c(O)c(c(/C=N/N5CCN(C)CC5)c(O)c4c3C2=O)NC(=O)/C(C)=C\C=C\[C@H](C)[C@H](O)[C@@H](C)[C@@H](O)[C@@H](C)[C@H](OC(C)=O)[C@@H]1C [Rifampin] | – | – | – | – | – | did not show enhanced lysosomal acidity | Decreased mean integral intensity of bacteria | – | Increased co-localisation of mycobacteria to lysosomes | Increased intensity of lysosomes that contain bacteria
